# Source: patent US20230129438A1, “IMMUNOMODULATING IMINE-OXAZOLINE AZALIDES” (Zoetis Services LLC, priority 2020, published 2023)
# Test system: BRD pathogens, M. haemolytica and P. multocida
# Assay: In-vitro MIC model, BRD pathogen screening panel
# Assay type: cell-based
# Details: non-antibacterial = MIC>64 μg/mL for M. haemolytica and P. multocida
row,Structure (SMILES),"antibacterial activity against BRD pathogens, in words"
1,"CCCNC[C@]1(O)[C@H](C)O[C@@H](O[C@H]2[C@H](C)[C@@H](O[C@@H]3O[C@H](C)C[C@H]4[C@H]3OC(=NCC(F)(F)F)N4C)[C@](C)(O)C[C@@H](C)CN[C@H](C)[C@@H](O)[C@](C)(O)[C@@H](CC)OC(=O)[C@@H]2C)C[C@@]1(C)OC (mixture of isomers) [Example A-4, (E/Z)-(2R,3S,4R,5R,8R,10R,11R,12S,13S,14R)-11-(((3aR,4S,6R,7aS)-1,6-dimethyl-2-((2,2,2-trifluoroethyl)imino)hexahydro-2H-pyrano[4,3-d]oxazol-4-yl)oxy)-2-ethyl-3,4,10-trihydroxy-13-(((2R,4R,5S,6S)-5-hydroxy-4-methoxy-4,6-dimethyl-5-((propylamino)methyl)tetrahydro-2H-pyran-2-yl)oxy)-3,5,8,10,12,14-hexamethyl-1-oxa-6-azacyclopentadecan-15-one]",lack of in vitro activity
2,"CCCNC[C@]1(O)[C@H](C)O[C@@H](O[C@H]2[C@H](C)[C@@H](O[C@@H]3O[C@H](C)C[C@H]4[C@H]3OC(=Nc3ccc(OC)cc3)N4C)[C@](C)(O)C[C@@H](C)CN[C@H](C)[C@@H](O)[C@](C)(O)[C@@H](CC)OC(=O)[C@@H]2C)C[C@@]1(C)OC (mixture of isomers) [Example A-9, (E/Z)-(2R,3S,4R,5R,8R,10R,11R,12S,13S,14R)-2-ethyl-3,4,10-trihydroxy-13-(((2R,4R,5S,6S)-5-hydroxy-4-methoxy-4,6-dimethyl-5-((propylamino)methyl)tetrahydro-2H-pyran-2-yl)oxy)-11-(((3aR,4S,6R,7aS)-2-((4-methoxyphenyl)imino)-1,6-dimethylhexahydro-2H-pyrano[4,3-d]oxazol-4-yl)oxy)-3,5,8,10,12,14-hexamethyl-1-oxa-6-azacyclopentadecan-15-one]",lack of in vitro activity
3,"CC[C@H]1OC(=O)[C@H](C)[C@@H](O[C@H]2C[C@@](C)(OC)[C@](O)(CNCCOC)[C@H](C)O2)[C@H](C)[C@@H](O[C@@H]2O[C@H](C)C[C@H]3[C@H]2OC(=Nc2ccc(OC)cc2)N3C)[C@](C)(O)C[C@@H](C)CN[C@H](C)[C@@H](O)[C@]1(C)O (mixture of isomers) [Example A-13, (E/Z)-(2R,3S,4R,5R,8R,10R,11R,12S,13S,14R)-2-ethyl-3,4,10-trihydroxy-13-(((2R,4R,5S,6S)-5-hydroxy-4-methoxy-5-(((2-methoxyethyl)amino)methyl)-4,6-dimethyltetrahydro-2H-pyran-2-yl)oxy)-11-(((3aR,4S,6R,7aS)-2-((4-methoxyphenyl)imino)-1,6-dimethylhexahydro-2H-pyrano[4,3-d]oxazol-4-yl)oxy)-3,5,8,10,12,14-hexamethyl-1-oxa-6-azacyclopentadecan-15-one]",lack of in vitro activity
4,"CCCNC[C@]1(O)[C@H](C)O[C@@H](O[C@H]2[C@H](C)[C@@H](O[C@@H]3O[C@H](C)C[C@H]4[C@H]3OC(=Nc3ccc(OC)nc3)N4C)[C@](C)(O)C[C@@H](C)CN[C@H](C)[C@@H](O)[C@](C)(O)[C@@H](CC)OC(=O)[C@@H]2C)C[C@@]1(C)OC (mixture of isomers) [Example A-17, (E/Z)-(2R,3S,4R,5R,8R,10R,11R,12S,13S,14R)-2-ethyl-3,4,10-trihydroxy-13-(((2R,4R,5S,6S)-5-hydroxy-4-methoxy-4,6-dimethyl-5-((propylamino)methyl)tetrahydro-2H-pyran-2-yl)oxy)-11-(((3aR,4S,6R,7aS)-2-((6-methoxypyridin-3-yl)imino)-1,6-dimethylhexahydro-2H-pyrano[4,3-d]oxazol-4-yl)oxy)-3,5,8,10,12,14-hexamethyl-1-oxa-6-azacyclopentadecan-15-one]",lack of in vitro activity
5,"CC[C@H]1OC(=O)[C@H](C)[C@@H](O[C@H]2C[C@@](C)(OC)[C@](O)(CN3CCOCC3)[C@H](C)O2)[C@H](C)[C@@H](O[C@@H]2O[C@H](C)C[C@H]3[C@H]2OC(=Nc2ccccc2)N3C)[C@](C)(O)C[C@@H](C)CN[C@H](C)[C@@H](O)[C@]1(C)O (mixture of isomers) [Example B-3, (E/Z)-(2R,3S,4R,5R,8R,10R,11R,12S,13S,14R)-11-(((3aR,4S,6R,7aS)-1,6-dimethyl-2-(phenylimino)hexahydro-2H-pyrano[4,3-d]oxazol-4-yl)oxy)-2-ethyl-3,4,10-trihydroxy-13-(((2R,4R,5S,6S)-5-hydroxy-4-methoxy-4,6-dimethyl-5-(morpholinomethyl)tetrahydro-2H-pyran-2-yl)oxy)-3,5,8,10,12,14-hexamethyl-1-oxa-6-azacyclopentadecan-15-one]",lack of in vitro activity
